# ERG-DNA inh = blocks human ERG Ets domain binding to DNA; Potency, µM (titrated, usually from 76.9 µM), actives largely listed as inhibitors; P11308; 370,000 compounds, 0.028% hits; AID 624246; fluorescence polarization, His-ERG Ets domain / labelled DNA; active = well fitted inhibition curve with a large enough effect in the polarisation, with a control signal flat; inconclusive = small, poorly fitted or top-dose-only effect, or effect the other way, or a change in a side signal; inactive = no such curve, though single readings can be large or run the other way; the % refers to the polarisation;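 note: polarization taken with two DNA probes labelled with fluorescein and Texas red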
#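 His-tagged ERG Ets domain (1 uM in the protein solution; 300mM KCl, 50mM Tris-HCl, 1mM EDTA, 1mM DTT, pH 7.5) received compound, then a probe mix of 5 nM fluorescein-DNA and 100nM Texas-615-DNA. Fluorescence polarization was read for both dyes.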
# RXFP1 agonist = agonists of human relaxin receptor RXFP1 | Q9HBX9 | HEK293T-RXFP1 cAMP TR-FRET, 30 min; response scale: percent of porcine relaxin response, buffer zero | Potency, µM (top dose mostly 57.5 µM), usual class: activators | 370,000 compounds, 0.3% hits | AID 2676; note: nearly all actives have a fitted effect of over 60% in size
#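 HEK293 cells stably expressing RXFP1, treated 30 min at 37C with compounds plus PDE4 inhibitor Ro 20174; cAMP measured by HTRF TR-FRET. Normalized to buffer and 29 nM porcine relaxin; EC50 by Hill fit.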
# ASM inhibitor = inhibitors of human secretory acid sphingomyelinase | placental ASM, HMU-PC fluorogenic substrate, 60 min | Potency, µM (highest dose often 57.5 µM), actives largely listed as inhibitors | 340,000 compounds, 0.006% hits
#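 qHTS format. ASM enzyme prepared from human placenta hydrolyses the fluorogenic substrate HMU-PC0 (9 uM final) over 60 min at 37 °C after a 10 min compound preincubation.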
# RXFP1 antag = blocks the human relaxin receptor RXFP1; Q9HBX9; HEK293-RXFP1, relaxin-stimulated cAMP HTRF, 30 min; active compounds read low; activity change, negative = inhibition, % at 57.5 µM; 350,000 compounds, 0.59% hits;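 active = activity change of -60% or lower, but not beyond a set lower limit; inconclusive = change between -60% and -40%, or beyond the set limit; inactive = change above -40%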
# Mito fusion yeast = blocks mitochondrial division or promotes mitochondrial fusion; S. cerevisiae fusion-defective mutant growth rescue, CellTiterGlo 48 h; Potency, µM (top dose mostly 46.1 µM), usual class: activators; 320,000 compounds, 0.23% hits; note: nearly all actives have a fitted effect of over 45% in size
#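 S. cerevisiae fusion-defective temperature-sensitive mutants (e.g. fzo1-1, mgm1-5) grown 48 h at 37C in YPEG (ethanol/glycerol non-fermentable) medium with 23 nl compound per well; growth rescue read as CellTiterGlo luminescence.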
# miR-21 FLuc = raises the signal of a miR-21 reporter | HeLa miR-21 FLuc reporter, luciferase, 48 h | Potency, µM (doses to about 38.3 µM) | 340,000 tested, under 10 active | AID 2288; active = well fitted rising curve with a large enough effect; inconclusive = small, poorly fitted or top-dose-only effect; inactive = no such curve, though single readings can be large or run the other way;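 note: miR-21 action dims this reporter so a rising signal means less miR-21 action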
#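 Luminescence from a firefly luciferase reporter carrying a miR-21 binding site downstream, stably expressed under a CMV promoter in HeLa cells that make miR-21 endogenously, reports miRNA modulation after 48 h compound exposure up to approximately 40uM final.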
# A number is an active result; – = inactive; ? = inconclusive; · = no result given. Rows were chosen to be rich in hits. Some 0.72% of all compounds tested hit in one or more screens of this group. Unless noted, calls come from the whole dose curve; as a rule, active = well fitted curve in the direction sought with a large enough effect; inconclusive = small, poorly fitted or top-dose-only effect, or another doubt; inactive = no such curve, though single readings can be large; an effect the other way counts as inactive or inconclusive.
SMILES,ERG-DNA inh,RXFP1 agonist,ASM inhibitor,RXFP1 antag,Mito fusion yeast,miR-21 FLuc
CC(C)(C)c1ccc(-c2nc3cc(N)ccc3o2)cc1,–,–,–,-84,–,–
CCO[C@@H]1OC(C(=O)N2CCN(Cc3ccccc3)CC2)=C[C@H](c2csc3ccccc23)[C@H]1CCCO,–,–,–,·,–,–
N#Cc1c(N)nc2c3c(sc(=N)c2c1N)NC(=O)CC3c1c(F)cccc1Cl (stereo unspecified),–,?,–,–,–,–
N#Cc1c(N)nc2c3c(sc(=N)c2c1N)NC(=O)CC3c1ccccc1 (stereo unspecified),–,28µM,–,–,–,–
O=C(CCC1N=C2c3ccccc3N=C(SCc3ccc(F)cc3)N2C1=O)N1CCN(c2ccccc2)CC1 (stereo unspecified),–,–,·,–,·,–
CCCC(=O)NC(c1cccs1)c1cc([N+](=O)[O-])c2cccnc2c1O (stereo unspecified),–,–,–,-66,–,–
S=c1nc2c(n[nH]1)c1ccccc1n2CCc1ccccc1,–,–,–,-115,–,–
CSc1nnc2c3ccccc3n(CCc3ccccc3)c2n1,–,–,–,–,–,–
Cc1ccc2nc(N3CCC(C(=O)N4CCN(c5cccc(Cl)c5)CC4)CC3)[nH]c2c1,–,–,·,–,·,–
COc1ccc(N=C2O/C(=C/c3sc(=S)n(CC4CCCO4)c3O)N=C2C#N)cc1 (stereo unspecified),–,–,–,-88,–,–
COc1ccc(/C=C2\SC(=S)N(CC3CCCO3)C2=O)cc1 (stereo unspecified),–,–,–,–,–,–
CC1CCc2c(sc(NC(=O)c3ccccc3)c2C(=O)Nc2ccccc2)C1 (stereo unspecified),–,–,·,–,·,–
CCOC(=O)c1c(C)[nH]c(C)c1C(=O)COC(=O)/C=C/c1cccc(Cl)c1,–,–,–,·,–,–
CCOC(=O)c1c(C)[nH]c(C=O)c1Cc1cccc(Cl)c1,–,–,–,–,13µM,–
Cc1[nH]c2ccccc2c1-c1csc(NC(=O)CSCCO)n1,–,–,–,–,20µM,–
Cc1csc(NC(=O)CSCC(=O)Nc2ccccc2)n1,–,–,–,–,–,–
CC(C)(C)C(=O)/C(C#N)=C/c1cccs1,–,–,–,–,–,–
N#C/C(=C\c1cccs1)C(=O)c1ccccc1Cl,–,–,–,-61,–,?
CC12CCC(C(=O)N(CSC(=S)N/N=C\c3ccccc3Cl)C1=O)C2(C)C (stereo unspecified),–,–,–,-65,–,–
CC12CCC(C(=O)N(CSC(=S)N/N=C\c3ccccc3)C1=O)C2(C)C (stereo unspecified),–,–,–,–,–,–
COc1ccccc1NC(=O)c1cc2ccc3cccnc3c2[nH]1,–,–,·,-71,·,–
CC(C)N(Cc1ccccc1)C(=O)c1cc2ccc3cccnc3c2[nH]1,–,–,·,-101,·,–
Cc1ccccc1Cn1c(CN2CCC(C(=O)NCc3cccnc3)CC2)cc2ccccc21,–,–,·,–,·,–
O=C(NN=C1C2CC3CC(C2)CC1C3)c1ccncc1,–,–,–,–,–,–
O=C(N/N=C1\C/C(=N\NC(=O)c2ccncc2)c2ccccc21)c1ccncc1,–,32µM,–,–,–,–
SMILES,ERG-DNA inh,RXFP1 agonist,ASM inhibitor,RXFP1 antag,Mito fusion yeast,miR-21 FLuc
COc1ccc(C(=O)/C=C2/C(=O)Nc3ccccc32)cc1,–,–,–,–,–,?
COc1ccc(C(=O)/C=C2/C(=O)Nc3ccccc32)c(OC)c1,–,–,–,-86,–,?
CCCCn1c(N)c(N(CC(C)C)C(=O)C2CC(=O)N(Cc3ccco3)C2)c(=O)[nH]c1=O (stereo unspecified),–,–,–,–,–,–
CCCc1ccc2oc(C(=O)NCCc3cnn(C)c3)c(C)c2c1,–,–,–,?,–,–
CCCc1ccc2oc(C(=O)NCCc3nc(C(=O)OCC)cs3)c(C)c2c1,–,–,?,-79,–,–
CCOC(=O)c1ccc(NC(=S)NNC(=O)c2cc(-c3cccnc3)nc3ccccc23)cc1,–,–,–,–,–,–
O=C(NNC(=S)Nc1ccccc1)c1cc(-c2cccnc2)nc2ccccc12,–,–,–,-61,–,–
CN(C(=O)Nc1ccc(Cl)c(Cl)c1)c1ccccc1C(=O)O,–,–,–,–,18µM,–
O=C(Nc1ccc(Cl)c(Cl)c1)c1ccccc1,–,–,–,·,?,·
COc1cccc(-n2ccnc2SCC(=O)Nc2c(C)cc(C)cc2C)c1,–,–,·,–,·,–
Cc1ccc(NC(=O)CSc2nc3nc(C)c(Cc4ccccc4)c(C)n3n2)cc1,–,–,·,–,·,–
CN(Cc1ccccc1)c1nc(N)c([N+](=O)[O-])c(NCc2ccccc2)n1,–,–,–,–,11µM,–
Nc1nc(NCCc2ccccc2)nc(NCc2ccccc2)c1[N+](=O)[O-],–,–,–,–,–,–
CCc1ccc(-n2c(=O)c3cccnc3n2CC(=O)Nc2cc(F)ccc2F)cc1,–,–,·,–,·,–
CCOC(=O)c1ccc(NC(=O)N2CCN(C(=O)c3ccco3)CC2)cc1,35µM,–,–,–,–,–
CCOc1ccc(NC(=O)N2CCN(C(=O)c3ccco3)CC2)cc1,–,–,–,–,–,–
O=C(CP(=O)(c1ccccc1)c1ccccc1)N/N=C/c1cc(Br)cc(Br)c1O,–,–,–,-71,–,–
COc1cc(Br)cc(/C=N/NC(=O)Cc2ccccc2)c1O,–,·,–,–,·,·
O=C(Cc1ccccc1)N/N=C/c1cc(Br)cc(Cl)c1O,–,–,–,-63,–,–
O=C(CNC(=O)c1ccccc1Br)N/N=C\c1cc([N+](=O)[O-])cc(Br)c1O,–,–,–,-67,–,–
O=C(COc1ccccc1)NCC(=O)N/N=C/c1cc(Br)ccc1OCc1ccccc1,–,–,–,–,18µM,–
C[C@H](N)C(=O)N[C@@H](C)C(=O)NC1[C@H]2CN(c3nc4c(cc3F)c(=O)c(C(=O)O)cn4-c3ccc(F)cc3F)C[C@@H]12 (stereo partly specified),·,·,·,–,·,·
COc1ccc(N2CCN(C(c3cccs3)c3nnnn3C3CCCC3)CC2)cc1 (stereo unspecified),–,–,–,–,11µM,–
Fc1ccc(N2CCN(C(c3cccs3)c3nnnn3C3CCCC3)CC2)cc1 (stereo unspecified),·,–,–,–,–,–

# Screening data from PubChem.
